# Binding of CDR-mutated scFvs to a peptide of the spike HR2 region

All variants were tested on one target, the spike HR2 peptide PDVDLGDISGINAS (SARS-CoV-2).

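This is the validation round: designs drawn from the data on random variants, tested in the same kind of assay. Several design methods are mixed in this list. Affinity was read by AlphaSeq, a pooled yeast mating assay with surface-displayed partners. Binding brings cells together so that they mate, and sequencing counts the barcode pairs among the diploids. Read counts were normalised to the haploid input and turned into Kd by a linear fit to BCL2-family pairs of known affinity, for each replicate. The assay was run in six technical replicates.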

Ab-14 is the parent antibody, in scFv form: VH, then three GGGGS repeats, then VL. The light chain is unchanged in all variants.
VH: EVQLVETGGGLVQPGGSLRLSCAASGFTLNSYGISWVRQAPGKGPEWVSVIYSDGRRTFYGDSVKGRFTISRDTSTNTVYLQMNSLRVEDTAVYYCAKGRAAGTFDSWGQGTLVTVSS
VL: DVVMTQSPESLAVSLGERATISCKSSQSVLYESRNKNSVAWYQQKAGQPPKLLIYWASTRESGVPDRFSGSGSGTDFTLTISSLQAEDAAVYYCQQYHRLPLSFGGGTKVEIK

The parent's heavy chain CDRs are GFTLNSYGIS, VIYSDGRRTFYGDSVK, GRAAGTFDS; each variant's own CDRs replace them letter for letter.
Values are log10 of the apparent Kd in nM; lower means stronger binding.
A mean of the replicates is given; it leaves out those without a signal.
An entry "nd" has no value in the source: the pair was not observed among the diploids in any replicate. This suggests poor binding but is not conclusive.
The authors averaged sequences with at least three values out of six and counted those with two or fewer as poor binders.
Of ten entries with the parent sequence, four were seen in most replicates (averages 0.34 to 2.37), three in one and three in none, so single entries are noisy.
Values of this round are not directly comparable with the first-round values of the same sequences.
Empty control strains, which show no peptide, gave a signal in 1% of pairings with all heavy chain designs; the median was 2.08 and 95% of these signals were weaker than 0.84. No background was subtracted.

{"CDR-H1": "GFSLNSYGIS", "CDR-H2": "VIYSDGRRTFYADQVK", "CDR-H3": "GNAAGTFDS", "mean, log10 nM": "0.13", "seen in": "6/6"}
{"CDR-H1": "GFSLNSYGIS", "CDR-H2": "VIYSDGRRTFYGDSVK", "CDR-H3": "GKTAGTFDT", "mean, log10 nM": "0.17", "seen in": "6/6"}
{"CDR-H1": "KFSLNSYGIS", "CDR-H2": "VIYSDGKRTFYGDSVK", "CDR-H3": "GRTAGTFDS", "mean, log10 nM": "0.98", "seen in": "5/6"}
{"CDR-H1": "GFDLNEYGIS", "CDR-H2": "VIYADGMRTAYADDVK", "CDR-H3": "GANAGTFDL", "mean, log10 nM": "-0.31", "seen in": "6/6"}
{"CDR-H1": "GFDLNEYGIS", "CDR-H2": "VIYADGMRTAYSDSVK", "CDR-H3": "GNHAGTFDL", "mean, log10 nM": "-0.82", "seen in": "6/6"}
{"CDR-H1": "GFQLNEYGIS", "CDR-H2": "VIYADGHRSEYADKVK", "CDR-H3": "GGINSSFGV", "mean, log10 nM": "nd", "seen in": "0/6"}
{"CDR-H1": "GDNLDEYGIS", "CDR-H2": "VIYADGQRTAYDDPVK", "CDR-H3": "GGQTGNVMV", "mean, log10 nM": "nd", "seen in": "0/6"}
{"CDR-H1": "GNTLNEYGIS", "CDR-H2": "VIYSDGRRTFYGDSVK", "CDR-H3": "GRMAGTFDT", "mean, log10 nM": "1.46", "seen in": "6/6"}
{"CDR-H1": "GFQLNEYGIS", "CDR-H2": "VIYSDGRRTFYGDSVK", "CDR-H3": "GRAAGTFIS", "mean, log10 nM": "nd", "seen in": "0/6"}
{"CDR-H1": "GFDLNEYGIS", "CDR-H2": "VIYADGRRTFYADSVK", "CDR-H3": "GNTAGTFDA", "mean, log10 nM": "-0.71", "seen in": "6/6"}
{"CDR-H1": "GFSLNSYGIS", "CDR-H2": "VIYADGRRTFYGDSVK", "CDR-H3": "GFAAGTFDS", "mean, log10 nM": "0.17", "seen in": "6/6"}
{"CDR-H1": "GFTLNEYGIS", "CDR-H2": "VIYSDGRRTFYGDSVK", "CDR-H3": "GREAGTFKI", "mean, log10 nM": "0.40", "seen in": "4/6"}
{"CDR-H1": "GFTLNEYGIS", "CDR-H2": "VIYSDGRRTFYTDSVK", "CDR-H3": "GRFAGTFDC", "mean, log10 nM": "nd", "seen in": "0/6"}
{"CDR-H1": "GFDLDEYGIS", "CDR-H2": "VIYADGMRTYYADSVK", "CDR-H3": "GENAGTFDL", "mean, log10 nM": "0.27", "seen in": "6/6"}
{"CDR-H1": "GFTDDSYGIS", "CDR-H2": "VIPSDGRRTFYGDSVK", "CDR-H3": "GRAAGIALS", "mean, log10 nM": "nd", "seen in": "0/6"}
{"CDR-H1": "GFDLNEYGIS", "CDR-H2": "VIYADGRRTQYSDSVK", "CDR-H3": "GEVAGTFDA", "mean, log10 nM": "0.95", "seen in": "5/6"}
{"CDR-H1": "GFTLESYGIS", "CDR-H2": "VIYSDGRRTFYGDDVK", "CDR-H3": "GKAAGTFDS", "mean, log10 nM": "2.06", "seen in": "6/6"}
{"CDR-H1": "GFDLNEYGIS", "CDR-H2": "VIYADGRRTAYADSVK", "CDR-H3": "GQVAGTFDS", "mean, log10 nM": "-0.97", "seen in": "6/6"}
{"CDR-H1": "GFTLNSYGVS", "CDR-H2": "VIYSDGRRTFYGDSVK", "CDR-H3": "GTAAGTFDS", "mean, log10 nM": "0.70", "seen in": "1/6"}
{"CDR-H1": "GFDLNSYGIS", "CDR-H2": "VIYSDGRRTFYADAVK", "CDR-H3": "GNAAGTFDS", "mean, log10 nM": "1.19", "seen in": "6/6"}
{"CDR-H1": "GFKLNSYGIS", "CDR-H2": "VIYSDGRRTFYDDSVK", "CDR-H3": "GRLAGTFDS", "mean, log10 nM": "1.69", "seen in": "5/6"}
{"CDR-H1": "GFTLDSYGIS", "CDR-H2": "VIYSDGRRTFYADSVK", "CDR-H3": "GREAGTFDS", "mean, log10 nM": "0.22", "seen in": "6/6"}

The first 4 entries again:

CDR-H1,CDR-H2,CDR-H3,"mean, log10 nM",seen in
GFSLNSYGIS,VIYSDGRRTFYADQVK,GNAAGTFDS,0.13,6/6
GFSLNSYGIS,VIYSDGRRTFYGDSVK,GKTAGTFDT,0.17,6/6
KFSLNSYGIS,VIYSDGKRTFYGDSVK,GRTAGTFDS,0.98,5/6
GFDLNEYGIS,VIYADGMRTAYADDVK,GANAGTFDL,-0.31,6/6

From the AlphaSeq antibody data of Li et al. 2023 (doi:10.1038/s41467-023-39022-2), copy in the FLAb collection.